# From patent US20100016338A1, “5-[(3,3,3-Trifluoro-2-hydroxy-1-arylpropyl)amino]-1-arylquinolin-2-ones, a Process for their Production and their Use as Anti-inflammatory Agents” (BAYER SCHERING PHARMA AKTIENGESELLSCHAFT, priority 2008, published 2010)
# The chains behind the UniProt entries cited, without tags or fusion partners.
# UniProt P04150, whole entry: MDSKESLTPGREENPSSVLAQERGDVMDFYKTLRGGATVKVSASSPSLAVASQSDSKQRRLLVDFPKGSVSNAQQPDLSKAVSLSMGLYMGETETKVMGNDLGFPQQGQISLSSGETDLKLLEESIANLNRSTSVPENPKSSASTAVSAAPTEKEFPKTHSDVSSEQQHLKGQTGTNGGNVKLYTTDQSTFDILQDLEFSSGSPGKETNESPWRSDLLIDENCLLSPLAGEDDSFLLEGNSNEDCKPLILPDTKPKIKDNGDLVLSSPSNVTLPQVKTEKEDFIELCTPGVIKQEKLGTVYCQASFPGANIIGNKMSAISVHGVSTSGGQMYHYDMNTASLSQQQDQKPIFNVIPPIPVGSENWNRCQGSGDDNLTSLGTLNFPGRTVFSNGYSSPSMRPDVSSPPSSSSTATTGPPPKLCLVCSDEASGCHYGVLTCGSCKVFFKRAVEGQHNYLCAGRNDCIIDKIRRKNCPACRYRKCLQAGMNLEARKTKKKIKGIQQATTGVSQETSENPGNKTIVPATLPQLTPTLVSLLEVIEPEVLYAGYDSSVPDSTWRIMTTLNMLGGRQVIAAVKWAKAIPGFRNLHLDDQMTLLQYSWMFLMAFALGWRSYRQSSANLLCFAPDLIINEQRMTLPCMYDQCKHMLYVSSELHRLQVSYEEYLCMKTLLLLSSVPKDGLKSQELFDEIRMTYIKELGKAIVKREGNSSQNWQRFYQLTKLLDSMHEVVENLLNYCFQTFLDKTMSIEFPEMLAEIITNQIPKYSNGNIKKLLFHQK
# What was measured:
# [1] = tested on: cytokine IL-8 secretion, human monocyte cell line THP-1; assay: inhibition of LPS-triggered IL-8 secretion in THP-1 cells (ELISA); settings: read-out: IC50(IL8)
# Method: The concentration of the cytokines was determined in the supernatant by means of commercially available ELISA kits.
# [2] = target: glucocorticoid receptor (GR) (Homo sapiens, UniProt P04150); assay: binding to the glucocorticoid receptor (recombinant receptor, cytosol of baculovirus-infected Sf9 cells); settings: read-out: IC50(GR)
# Source text: The binding of the substances to the glucocorticoid receptor (GR) and other steroid hormone receptors (mineral corticoid receptor (MR), progesterone receptor (PR) and androgen receptor (AR)) is examined with the aid of recombinantly produced receptors. Cytosol preparations of Sf9 cells, which had been infected with recombinant baculoviruses, which code for the GR, are used for the binding studies.
Compound,pIC50 [1],pIC50 [2]
COc1cccc(C(Nc2cccc3nc(C)ccc23)C(O)(CCl)C(F)(F)F)c1 (stereo not drawn),7.60,
COCC(O)(C(Nc1cc(F)cc2c1ccc(=O)n2-c1ccc(F)cc1)c1ccc(OC)c(F)c1Cl)C(F)(F)F (stereo not drawn),9.10,8.11

# pIC50: −log10 of the molar value.
